Here are results for one substance from patent publication US20250154219A1, “PEPTIDE ANALOGS” (Adepthera LLC, priority 2017, published 2025).

Read-outs that look alike come from different tables or passages of the source.

This assay deals with type 1 angiotensin II receptor AGTR1 (Homo sapiens, UniProt P30556). As to the kind of experiment: AGTR1 calcium flux assay, antagonist mode. The class given is cell-based.

The IC50 is the concentration needed to halve the response being measured. As to telmisartan [reference compound], the IC50 was 0.6 nM. Further, the “AGTR1 Max Activity (IC50 column pair)” value (antagonist) is listed as 100 % of positive controls. Further, the IC50 (listed as telmisartan) was 0.62 nM.
